Conditions: rabbit, in vivo

Times more active substance in the ciliary body with iontophoresis 2 mA than with topical method: at least three
Substance: ^3H-clonidine
Efficiency of iontophoresis without current (0 mA) compared with topic administration: about the same efficiency as the topic administration

— patent publication US9238131B2, “Ocular iontophoresis device” (priority 2005, dated 2016)
